Values of other authors, collected in publication PMC5074076, “Novel minimal physiologically-based model for the prediction of passive tubular reabsorption and renal excretion clearance” (European Journal of Pharmaceutical Sciences, 2016).

Settings: healthy subjects; plasma and urine data from same subjects; normalised for subject weight and body surface area where necessary; ref Table S2.1; cited from earlier work

SMILES: Cc1nc2n(c(=O)c1CCN1CCC(c3noc4cc(F)ccc34)CC1)CCCC2 [Risperidone]
- Overall weighted mean CLR: 41.5 mL/min
